Usually IC50 stands for the midpoint of a concentration-inhibition curve.

By UniProt entry, the sequences of proteins in these tests, tags left out. Residues count along the entry.
UniProt P23739, 1014-1841 limits assumed: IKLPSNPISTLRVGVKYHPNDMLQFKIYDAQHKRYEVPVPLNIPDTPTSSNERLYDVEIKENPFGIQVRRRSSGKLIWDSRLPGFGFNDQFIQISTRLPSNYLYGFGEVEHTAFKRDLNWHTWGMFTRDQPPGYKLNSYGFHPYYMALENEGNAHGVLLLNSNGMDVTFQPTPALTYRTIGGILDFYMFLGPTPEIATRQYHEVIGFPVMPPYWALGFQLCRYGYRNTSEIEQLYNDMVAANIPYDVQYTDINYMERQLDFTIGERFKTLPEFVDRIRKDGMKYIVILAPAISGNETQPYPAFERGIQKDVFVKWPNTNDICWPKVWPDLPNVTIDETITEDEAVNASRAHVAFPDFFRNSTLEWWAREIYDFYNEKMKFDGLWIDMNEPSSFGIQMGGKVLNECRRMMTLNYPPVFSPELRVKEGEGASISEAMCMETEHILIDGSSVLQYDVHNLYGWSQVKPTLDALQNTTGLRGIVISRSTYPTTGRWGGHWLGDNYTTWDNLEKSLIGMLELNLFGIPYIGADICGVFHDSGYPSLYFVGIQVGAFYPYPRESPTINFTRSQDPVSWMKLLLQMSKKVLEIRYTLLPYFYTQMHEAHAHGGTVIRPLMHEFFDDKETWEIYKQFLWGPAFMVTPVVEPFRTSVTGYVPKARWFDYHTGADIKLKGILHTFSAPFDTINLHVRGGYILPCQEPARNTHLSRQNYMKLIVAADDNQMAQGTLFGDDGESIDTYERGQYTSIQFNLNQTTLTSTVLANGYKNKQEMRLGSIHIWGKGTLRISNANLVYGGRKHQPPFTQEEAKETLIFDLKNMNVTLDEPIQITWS
UniProt P23739, 1-1013 limits assumed: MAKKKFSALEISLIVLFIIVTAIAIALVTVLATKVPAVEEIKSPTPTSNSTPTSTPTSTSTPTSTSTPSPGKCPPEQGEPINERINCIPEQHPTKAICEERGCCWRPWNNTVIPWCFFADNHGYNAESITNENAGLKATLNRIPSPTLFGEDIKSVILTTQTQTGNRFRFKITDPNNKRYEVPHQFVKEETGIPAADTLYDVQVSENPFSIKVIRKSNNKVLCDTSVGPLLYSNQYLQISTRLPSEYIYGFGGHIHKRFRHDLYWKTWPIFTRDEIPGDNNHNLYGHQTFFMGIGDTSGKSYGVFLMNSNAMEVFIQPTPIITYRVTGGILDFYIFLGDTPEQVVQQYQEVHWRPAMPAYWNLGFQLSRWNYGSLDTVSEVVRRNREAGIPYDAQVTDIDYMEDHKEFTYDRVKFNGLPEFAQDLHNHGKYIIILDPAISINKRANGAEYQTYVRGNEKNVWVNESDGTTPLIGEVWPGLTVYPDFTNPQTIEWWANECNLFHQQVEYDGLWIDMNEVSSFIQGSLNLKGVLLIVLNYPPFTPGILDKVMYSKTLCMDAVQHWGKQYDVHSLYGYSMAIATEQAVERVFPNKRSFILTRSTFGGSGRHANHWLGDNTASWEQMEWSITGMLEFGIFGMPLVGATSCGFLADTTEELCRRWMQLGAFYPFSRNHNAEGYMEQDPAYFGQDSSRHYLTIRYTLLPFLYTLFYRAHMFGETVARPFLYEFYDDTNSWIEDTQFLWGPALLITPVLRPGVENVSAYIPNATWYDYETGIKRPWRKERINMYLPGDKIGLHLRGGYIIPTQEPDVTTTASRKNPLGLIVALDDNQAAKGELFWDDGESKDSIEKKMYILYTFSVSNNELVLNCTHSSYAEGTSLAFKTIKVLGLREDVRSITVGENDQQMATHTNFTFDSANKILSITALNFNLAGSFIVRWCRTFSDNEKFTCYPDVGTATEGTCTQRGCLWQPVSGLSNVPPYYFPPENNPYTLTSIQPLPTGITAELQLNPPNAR

For this experiment, the target named is Sucrase-isomaltase, intestinal (Rattus norvegicus, UniProt P23739). In words: Inhibition of rat small intestinal sucrase after 30 mins by glucose-oxidase method. Put shortly: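 Enzyme source was rat small-intestinal brush border membrane vesicles suspended in 0.1 M maleate buffer, pH 6.0. Substrate solutions, prior to mixing, were maltose 74 mM (maltase), sucrose 74 mM (sucrase) and isomaltose 7.4 mM (isomaltase). Substrate, inhibitor and enzyme were incubated at 37 °C for 30 min, then stopped by 2 min boiling. Released glucose was measured by glucose oxidase. Final DMSO was 2.5%.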

The structures appear in SMILES notation.

Compound `C[C@H]1O[C@H](O[C@H]2[C@H](O)[C@@H](O)[C@@H](O[C@H]3[C@H](O)[C@@H](O)C(O)O[C@@H]3CO)O[C@@H]2CO)[C@H](O)[C@@H](O)[C@@H]1N[C@H]1C=C(CO)[C@@H](O)[C@H](O)[C@H]1O` (stereo partly specified) [ACARBOSE] gave an IC50 of 1.5 µM. This counts as single-digit micromolar.

The record behind these values is ChEMBL document CHEMBL1770143, “Biological evaluation of 3'-O-alkylated analogs of salacinol, the role of hydrophobic alkyl group at 3' position in the side chain on the α-glucosidase inhibitory activity” (Bioorg Med Chem Lett, 2011).
